Test results as given in PubChem BioAssay AID651582 (Sanford-Burnham Center for Chemical Genomics, 2012).
This is a selection; strong and weak results do not stand in their true shares. Some salts or complexes appear as unconnected parts, following the source record. Calls of active or inactive are those of the source.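 How the source made its calls: active means pattern-corrected inhibition of lipid staining of at least 50% with the nuclear-stain viability signal not falling by more than 50%; inactive means the rest, inconclusive results apart.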

Assay: inhibitors of triacylglycerol accumulation, primary screen, cell-based, uHTS, fluorescence, H9c2 (AID 651582);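 further: 0% = DMSO wells and 100% = triacsin C control wells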
Settings: H9c2 cells, Nile Red lipid (TAG) fluorescence; at 12.5 µM; hits give high values; cells loaded with 200 µM oleic acid
In the case of `CC1=NCCc2c1[nH]c1ccccc21.O=[N+]([O-])c1cc([N+](=O)[O-])c(O)c([N+](=O)[O-])c1`, the inhibition is reported as inactive: 5.61%. In the case of `Cc1ccc(NP(=O)(Oc2cccc(C)c2)Oc2cccc(C)c2)nc1`, the inhibition is reported as inactive: -18.9%. With `CCNC(=S)/N=C(\N)N[N+](=O)[O-]` the inhibition was inactive: -2.01%. In the case of `COc1ccc(OP(C)(=O)Nc2ccc(SC(F)(F)F)cc2)cc1` (configuration not stated), the inhibition is reported as inactive: 0.641%. In the case of `O=P1(N(CCCl)CCCl)OCCC2CCCCN21` (configuration not stated), the inhibition is reported as inactive: 4.37%. In the case of `CCN(CC)CCCOC(=O)C(O)(c1ccccc1)C1CCCCC1` (configuration not stated), the inhibition is reported as inactive: -4.55%. In the case of `CCC(=O)N1C2C3N(C(=O)CC)C1C1N(C(=O)CC)C(C(N1C(=O)CC)N3C(=O)CC)N2C(=O)CC`, the inhibition is reported as inactive: -13.4%. With `Cc1c([N+](=O)[O-])cc([N+](=O)[O-])c(Br)c1[N+](=O)[O-]` the inhibition was inactive: -5.44%. With `COC(=O)c1cc2c(s1)N=C(c1ccccc1)N(C)P2(=O)N1CCOCC1` (configuration not stated) the inhibition was inactive: -3.72%. For `Cc1ccc(OP(=O)(Nc2ccccn2)Oc2ccc(C)cc2)cc1`, the inhibition was inactive: -22.6%. For `Cc1ccccc1OP(=O)(Nc1ccccn1)Oc1ccccc1C`, the inhibition was inactive: -10.1%. With `CC(NC(=O)COC(=O)C(O)(c1ccccc1)c1ccccc1)c1ccccc1` (configuration not stated) the inhibition was inactive: -19.5%. For `CN(C)C(=O)Oc1noc2ccccc12`, the inhibition was inactive: -22.7%. With `O=[N+]([O-])c1cc([N+](=O)[O-])c(OC2CCCCC2O)c([N+](=O)[O-])c1` (configuration not stated) the inhibition was inactive: 13.9%. For `O=c1c2cc([N+](=O)[O-])ccc2[nH]c2c([N+](=O)[O-])cc([N+](=O)[O-])cc12`, the inhibition was inactive: -9.21%. In the case of `CCCCCOc1ccc(NP(C)(=O)Oc2ccc(Cl)cc2Cl)cc1` (configuration not stated), the inhibition is reported as inactive: -79%. For `O=P1(Nc2nc3ccc(Cl)cc3s2)COc2ccccc2O1` (configuration not stated), the inhibition was inactive: -25.3%. With `O=[N+]([O-])c1cc([N+](=O)[O-])c(Nc2ccc(Cl)cc2)c([N+](=O)[O-])c1` the inhibition was inactive: -12%. With `CCOc1ccc(C2=NCC(CBr)S2)cc1` (configuration not stated) the inhibition was inactive: -4.2%. For `CC(C)(C)C(=O)NC(Sc1ccccc1)C(Cl)(Cl)Cl` (configuration not stated), the inhibition was inactive: 2.91%. In the case of `CC(C)c1ccc(OP(C)(=O)Nc2ccc(SC(F)(F)F)cc2)cc1` (configuration not stated), the inhibition is reported as inactive: -11.9%. For `CCc1cc(O)c([N+](=O)[O-])c(C)c1[N+](=O)[O-]`, the inhibition was inactive: -7.45%. In the case of `Cc1ccccc1CN(C)C(=O)COC(=O)C(O)(c1ccccc1)c1ccccc1`, the inhibition is reported as inactive: -5.75%. With `C[C@@H]1C=CCP(=O)(Oc2ccccc2)O1` (some centres not stated) the inhibition was inactive: -57.3%. For `N#C/C(=C\c1ccc(N(CCBr)CCBr)cc1)C(N)=O`, the inhibition was inactive: 12.8%. For `COC(=O)C1(C)COP(=O)(NCc2ccccc2)OC1` (configuration not stated), the inhibition was inactive: -26.1%. For `O=C(OC1CN2CCC1CC2)c1ccc([N+](=O)[O-])cc1` (configuration not stated), the inhibition was inactive: -1.4%. In the case of `COc1ccc2c(c1O)-c1c(O)c(OC)cc3c1[C@H](C2)[N+](C)(C)CC3.O=[N+]([O-])c1cc([N+](=O)[O-])c([O-])c([N+](=O)[O-])c1[O-]`, the inhibition is reported as inactive: -32.8%. With `CC(=O)Nc1ccc([As](=O)(O)O)c(O)c1` the inhibition was inactive: -8.77%. In the case of `CC(=O)Nc1ccc(Oc2c([N+](=O)[O-])cc([N+](=O)[O-])cc2[N+](=O)[O-])cc1`, the inhibition is reported as inactive: -11.8%. In the case of `O=P(Nc1nccs1)(c1ccccc1)c1ccccc1`, the inhibition is reported as inactive: 10.2%. With `CP(=O)(Nc1ccc(SC(F)(F)F)cc1)Oc1ccc(F)cc1` (configuration not stated) the inhibition was inactive: -40.3%. For `c1nnnn1CCn1cnnn1`, the inhibition was inactive: -18.1%. For `CCOP(C)(=S)SCC(=O)NC(C)(CC)C(=O)O` (configuration not stated), the inhibition was inactive: 0.505%. With `CP(=O)(Nc1ccc2c(c1)OCCO2)Oc1ccccc1` (configuration not stated) the inhibition was inactive: -1.35%. For `Cc1ccccc1NP(C)(=O)Nc1ccccc1C`, the inhibition was inactive: -9.15%. In the case of `COc1ccc(OP(C)(=O)Nc2cccc(Br)c2)cc1` (configuration not stated), the inhibition is reported as inactive: -14.3%. With `COc1ccc(N)c([N+](=O)[O-])c1[N+](=O)[O-]` the inhibition was inactive: 15%. In the case of `COc1ccc(NP(C)(=O)Oc2ccccc2OC)cc1` (configuration not stated), the inhibition is reported as inactive: -6.12%. With `O=P(Nc1nc2ccccc2s1)(c1ccccc1)c1ccccc1` the inhibition was inactive: -24.1%. With `C[C@H]1OP(=O)(Oc2ccccc2)[C@H](O)[C@H](O)[C@H]1N=[N+]=[N-]` (some centres not stated) the inhibition was inactive: 3.05%. With `O=[As](O)(c1ccccc1)c1ccc(O)cc1` the inhibition was inactive: 8.15%. With `O=[N+]([O-])c1cc([N+](=O)[O-])c(NCC2CCS(=O)(=O)C2)c([N+](=O)[O-])c1` (configuration not stated) the inhibition was inactive: 9.8%. For `Cc1cc(-c2cccc3ccccc23)c(C)cn1.O=[N+]([O-])c1cc([N+](=O)[O-])c(O)c([N+](=O)[O-])c1`, the inhibition was inactive: -4.34%. With `O=[N+]([O-])c1ccc(O)c(/C=N/Nc2ccc([N+](=O)[O-])cc2[N+](=O)[O-])c1` the inhibition was inactive: 0.655%. With `O=[N+]([O-])c1ncn(CCn2cnc([N+](=O)[O-])n2)n1` the inhibition was inactive: -6.69%. For `O=C(OC1CN2CCC1CC2)c1cccc(Cl)c1` (configuration not stated), the inhibition was inactive: 10.3%. For `Cc1c(C(c2ccc3c(c2)OCO3)c2c(C)n(C)n(-c3ccccc3)c2=O)c(=O)n(-c2ccccc2)n1C.O=[N+]([O-])c1cc([N+](=O)[O-])c(O)c([N+](=O)[O-])c1`, the inhibition was inactive: -5.79%. For `Nc1ccc([As](=O)(O)c2ccc([N+](=O)[O-])cc2)cc1`, the inhibition was inactive: 8.54%. For `O=P1(N(CCCl)CCCl)OCCCS1` (configuration not stated), the inhibition was inactive: 1.98%. In the case of `O=[N+]([O-])c1ncn(CCn2ncnc2[N+](=O)[O-])n1`, the inhibition is reported as inactive: -0.562%. For `CC(C)(C)C(=O)NC(Sc1ccncn1)C(Cl)(Cl)Cl` (configuration not stated), the inhibition was inactive: 6.45%. For `O=[N+]([O-])c1cccc(NC2=NCC(CBr)S2)c1` (configuration not stated), the inhibition was inactive: 2.96%. For `COC(=O)C1(C)COP(=O)(Nc2ccccc2)OC1` (configuration not stated), the inhibition was inactive: -15%. With `CCN(CC)CC(O)COC(=O)C(O)(c1ccccc1)C1CCCCC1` (configuration not stated) the inhibition was inactive: 6.82%. In the case of `COc1ccc(C2=NCC(CBr)S2)cc1` (configuration not stated), the inhibition is reported as inactive: 2.86%. For `Cc1ccc(NP(=O)(Oc2ccccc2)Oc2ccccc2)nc1`, the inhibition was inactive: -17.6%.
